Test results as given in publication PMC11053023 (2024).

molecular target: FEM1B-EB-EC ternary complex (human, UniProt Q9UK73 1-627; Q15370 1-118; Q15369 17-112); experiment: ITC

Row | Kd [µM] | Binder
1 | 1.1 | KKHSLDLLSKERELLRHLSP [SUMO-(GGGS)2-CCDC89 352-374 Δ3]
2 | 10.6 | GGGSGGGSDGWIRVSSDNVADLHEKYSGSTA [PSMB5 C-degron P-1A, SUMO fusion]
3 | 2.1 | KKHSLDLLSKERLRHLSP [SUMO-(GGGS)2-CCDC89 352-374 Δ5]
4 | 6.7 | GGGSGGGSKKHSLDLLSKERELNGKLRHLSL [CCDC89 C-degron P-1L, SUMO fusion]
5 | 46 | GGGSGGGSKKHSLDLLSKERELNGKLRHLSA [CCDC89 C-degron P-1A, SUMO fusion]
6 | 6.7 | GGGSGGGSKKHSLDLLSKERELNGKLRHLSQ [CCDC89 C-degron P-1Q, SUMO fusion]
